Test results as given in patent US6475781.

Target: wildtype murine PDGF A chain (murine) (UniProt P20033)
Experiment: cell-based or functional assay

- PDGF activity in conditioned media of co-transfected COS cells (bioassay on Balb/c-3T3 cells), 3-fold excess of 1317 DNA (fold decrease): 5
- PDGF activity in conditioned media of co-transfected COS cells (bioassay on Balb/c-3T3 cells), 7-fold excess of 1317 DNA (fold decrease): 10
- growth of PDGF-A transformed Balb/c 3T3 sublines in PPP-supplemented medium (% suppression): 70
Substance: PDGF A dominant negative mutant 1317 (murine preproPDGF A chain with -ArgLysArg- of the proteolytic cleavage site -ArgArgLysArg- changed to -SerAsnGly-) (from UniProt P20033 21-196) (ligand)
